{"sequences": {"note": "The chains behind the UniProt entries cited, without tags or fusion partners. Where a name states a change or a piece, a line headed by the entry shows the natural chain unless it says otherwise.", "UniProt P47901": "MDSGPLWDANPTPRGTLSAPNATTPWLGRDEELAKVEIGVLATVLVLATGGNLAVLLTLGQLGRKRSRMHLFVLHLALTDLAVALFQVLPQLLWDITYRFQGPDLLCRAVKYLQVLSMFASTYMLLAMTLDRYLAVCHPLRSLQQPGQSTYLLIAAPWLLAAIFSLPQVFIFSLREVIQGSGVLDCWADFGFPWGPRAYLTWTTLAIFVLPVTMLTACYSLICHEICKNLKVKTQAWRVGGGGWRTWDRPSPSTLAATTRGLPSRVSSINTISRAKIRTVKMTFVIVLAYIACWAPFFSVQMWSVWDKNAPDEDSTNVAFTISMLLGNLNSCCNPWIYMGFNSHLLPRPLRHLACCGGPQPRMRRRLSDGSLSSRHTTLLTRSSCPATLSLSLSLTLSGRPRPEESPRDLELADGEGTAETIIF", "UniProt P37288, whole entry": "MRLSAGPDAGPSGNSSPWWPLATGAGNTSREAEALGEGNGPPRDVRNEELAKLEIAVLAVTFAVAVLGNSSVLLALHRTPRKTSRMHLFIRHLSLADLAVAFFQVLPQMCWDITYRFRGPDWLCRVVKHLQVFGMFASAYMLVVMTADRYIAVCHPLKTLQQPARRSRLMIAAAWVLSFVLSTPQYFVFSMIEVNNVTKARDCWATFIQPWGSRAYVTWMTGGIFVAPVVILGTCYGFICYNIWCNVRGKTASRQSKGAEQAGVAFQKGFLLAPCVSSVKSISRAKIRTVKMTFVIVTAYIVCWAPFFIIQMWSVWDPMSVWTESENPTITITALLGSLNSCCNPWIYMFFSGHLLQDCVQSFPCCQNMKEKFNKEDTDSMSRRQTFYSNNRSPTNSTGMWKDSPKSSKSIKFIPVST", "UniProt P30559": "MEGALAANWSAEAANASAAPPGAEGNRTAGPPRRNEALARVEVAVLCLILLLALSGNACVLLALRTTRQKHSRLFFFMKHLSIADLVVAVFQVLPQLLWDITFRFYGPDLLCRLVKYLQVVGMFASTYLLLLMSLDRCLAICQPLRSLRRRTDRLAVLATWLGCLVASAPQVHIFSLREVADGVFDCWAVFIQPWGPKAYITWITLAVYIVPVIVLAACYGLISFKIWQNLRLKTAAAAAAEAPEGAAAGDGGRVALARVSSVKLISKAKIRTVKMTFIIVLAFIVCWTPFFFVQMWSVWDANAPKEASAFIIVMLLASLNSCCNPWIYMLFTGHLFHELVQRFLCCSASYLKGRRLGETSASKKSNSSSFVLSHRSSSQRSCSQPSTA"}, "source": "paper PMC8859281", "origin": "cited, not measured here", "key": {"[1]": {"molecular_target": "vasopressin V1b receptor (Homo sapiens) (UniProt P47901)"}, "[2]": {"molecular_target": "vasopressin V1a receptor (Homo sapiens) (UniProt P37288)"}, "[3]": {"molecular_target": "oxytocin receptor (Homo sapiens) (UniProt P30559)"}}}
{"substance": "conopressin-S (from UniProt P05487)", "values": [{"measurement": "Ki", "setting": "[1]", "result": 0.0083, "unit": "µM"}]}
{"substance": "conopressin-T (from UniProt P0DL76)", "values": [{"measurement": "Ki", "setting": "[2]", "result": 0.319, "unit": "µM"}, {"measurement": "Ki", "setting": "[3]", "result": 0.108, "unit": "µM"}]}
